This note sets out measurements from publication PMC8815882, “Screening the pandemic response box identified benzimidazole carbamates, Olorofim and ravuconazole as promising drug candidates for the treatment of eumycetoma” (PLoS Neglected Tropical Diseases, 2022).

The subject of the test is M. mycetomatis genome strain MM55. The test can be described thus: CLSI M38-A2 based in vitro susceptibility screening (XTT or resazurin), growth at fixed concentration. As to conditions: selected if >75% (resazurin) or >80% (XTT) fungal growth inhibited. It counts as cell-based, Madurella mycetomatis. (Tetrazolium assays rely on reduction of a dye to a coloured formazan, in cell work by metabolically active cells.)

On to `COC(=O)Nc1nc2ccccc2[nH]1` [MMV344625, Carbendazim], for which the “Inhibits growth of Madurella mycetomatis at 25 μM” value is “inhibit the growth”.
